Screening data: PubChem, National Center for Advancing Translational Sciences (NCATS)
Lamin A splicing = LMNA splicing modulation. Potency, µM (doses to about 46.1 µM), hits mostly inhibitors. actives 0.01% (n = 200,000). HeLa LMNA splicing GFP/RFP minigene ratio, 48 h; active means well fitted inhibition curve with a large enough effect in the signal ratio, with a control signal flat, not every such curve was filed as active; inconclusive means small, poorly fitted or top-dose-only effect, or effect the other way, or a change in a side signal; the % refers to the signal ratio
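S3 HeLa stable clones carrying a lamin A-EGFP splicing minigene plus DsRed2 were seeded at 600 cells/well in Opti-MEM with 2% FBS, pin-dosed and incubated 48 h at 37°C. Acumen cytometry (488 nm) gave the GFP/RFP total-intensity ratio.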
Tb PFK block = blocks T. brucei phosphofructokinase | T. brucei PFK, ADP-Glo luminescence | Potency, µM (highest dose often 57.5 µM), hits mostly inhibitors | actives 0.17% (n = 330,000); active means well fitted curve in the direction sought with a large enough effect; inconclusive means small, poorly fitted or top-dose-only effect, or another doubt; inactive means no such curve, though single readings can be large; an effect the other way counts as inactive or inconclusive; further: nearly all actives have a fitted effect of over 60% in size
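1.25 nM PFK with 0.5 mM F6P and 0.1 mM ATP in 0.1 M TEA pH 8.0, 5 mM MgCl2, incubated 45 min at room temperature; ADP measured by ADP-Glo luminescence; compounds titrated up to 57 uM.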
Rango-impB inh = prevents formation of the Rango-importin beta complex; Q14974; Rango CFP/YFP FRET sensor + importin beta, 45 min; Potency, µM (highest dose often 92.2 µM); actives 0.031% (n = 340,000); further: nearly all actives have a fitted effect of over 15% in size
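FRET biosensor (snurportin 1 IBB flanked by EYFP and cerulean), 50 nM, with compound 5 min, then 0.125 microM importin beta in PBS, 1 mM DTT, 0.02% Tween-20, 0.1% BSA. CFP/YFP ratio read after 45 min at room temperature; pre-read flags interference.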
Luc counter = blocks Kinase-Glo luciferase, a counter-screen artifact. Q27757. Kinase-Glo luciferase, ATP luminescence, 8 min. Potency, µM (titrated, usually from 38.3 µM), usual class: inhibitors. actives 0.28% (n = 200,000); active means well fitted curve in the direction sought with a large enough effect; inconclusive means small, poorly fitted or top-dose-only effect, or another doubt; inactive means no such curve, though single readings can be large; an effect the other way counts as inactive or inconclusive; further: nearly all actives have a fitted effect of over 60% in size
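Light output from Kinase-Glo luciferase with luciferin and 10 uM ATP in 50 mM imidazole pH 7.2, KCl, MgCl2, Tween 20, BSA; compound pin-delivered, 8-min ambient incubation, then luminescence read.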
Chronic BCR inh = inhibitors of chronic active B-cell receptor signaling; ABC-DLBCL IkBa-CBG/CBR reporter, luminescence ratio, 4 h; Potency, µM (highest dose often 46.1 µM), most hits filed as inhibitors; actives 0.05% (n = 340,000); AID 493014; active means well fitted inhibition curve with a large enough effect in the signal ratio, with a control signal flat, not every such curve was filed as active; inconclusive means small, poorly fitted or top-dose-only effect, or effect the other way, or a change in a side signal; the % refers to the signal ratio
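Cell line TMD8 (human ABC DLBCL), stably expressing tet-inducible CBG68-IkBa fusion and CBR; IMDM/0.5% FBS; cpd up to 46 uM; dox induction, 4 h, 37C/5% CO2; dual luminescence; green/red ratio; MG132 control.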
Rango dissoc inh = prevents RanGTP from dissociating the Rango-importin beta complex | O95149+P62826 | Biochemical FRET Rango-importin beta, RanGTP-induced dissociation | Potency, µM (titrated, usually from 46.1 µM) | actives 0.071% (n = 340,000); further: nearly all actives have a fitted effect of over 45% in size
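Two FRET readings bracket the reaction: one 5 min after compound meets Rango–importin beta, another 45 min after RanGTP-RCC1 (0.6 uM Ran, 0.2 uM RCC1, 2 mM GTP) is added. Only the second defines inhibition.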
A number is an active result; - = inactive; ? = inconclusive; . = no result. Only some compounds are listed: those with a hit (about 0.44% of all), similar ones and a draw of the others. Unless noted, the call rests on the fitted dose curve.

SMILES | Lamin A splicing | Tb PFK block | Rango-impB inh | Luc counter | Chronic BCR inh | Rango dissoc inh
Cn1c(=O)c(=O)n(C)c2cc(S(=O)(=O)N3CCC(N4CCCCC4)CC3)ccc21 | . | . | - | . | . | -
CCCc1nnc2n1N=C(c1ccc(OC)c(OC)c1)CS2 | ? | - | - | - | 13µM | -
COc1ccc(C2=Nn3c(nnc3-c3ccccc3F)SC2)cc1OC1CCCC1 | . | - | - | . | 5.8µM | -
CCOc1ccc(C2=Nn3c(nnc3-c3ccc(OC)cc3)SC2)cc1 | ? | - | - | - | 13µM | -
CCN(CC)S(=O)(=O)N1CCC(C(=O)NCC2COc3ccccc3O2)CC1 (stereo not drawn) | - | - | - | - | - | -
O=C(Nc1nc(-c2ccc(Cl)s2)cs1)c1cccs1 | ? | - | ? | - | ? | ?
Cc1ccc2nc(-c3ccc(NS(C)(=O)=O)cc3)cc(-c3ccccc3)c2c1 | ? | - | ? | - | - | 8.9µM
CCn1c(/C=C/c2ccccc2)nc2ccccc21 | - | - | - | 10µM | - | -
COc1ccc(/C=C/c2nc3ccccc3n2C)cc1 | ? | ? | - | 2.8µM | ? | -
O=c1cc(-c2ccc(F)cc2)nc(SCc2nc(-c3ccccc3Cl)no2)[nH]1 | - | . | . | . | . | .
O=C(/C=C/c1ccnc2ccccc12)c1cccs1 | . | - | - | 13µM | ? | -
CCc1n(CC(O)COCC2CC=CCC2)c2ccccc2[n+]1C (stereo not drawn) | ? | - | - | - | - | -
c1ccc(Nc2nc3ccccc3n3nnnc23)cc1 | . | - | ? | . | ? | 21µM
NC(=O)C(=O)N/N=C/c1c2ccccc2cc2ccccc12 | . | - | - | . | ? | 15µM
c1ccc(-c2cc(-c3ccc(N4CCOCC4)cc3)nc3ccccc23)cc1 | - | - | ? | - | ? | -
O=c1cc(N2CCOCC2)oc2c(-c3ccccc3)cccc12 | 16µM | . | . | - | . | .
Clc1ccccc1Nc1nnc(-c2ccncc2)s1 | - | - | - | 1.3µM | ? | -
Cc1onc(-c2ccccc2)c1C(=O)Nc1ccccc1NC(=O)c1c(-c2ccccc2)noc1C | . | - | - | . | - | -
CCCOc1ccccc1NC(=O)c1c(-c2ccccc2)noc1C | ? | - | 58µM | - | - | -
COc1nccnc1NS(=O)(=O)c1ccc(N=Cc2c(C)[nH]n(-c3ccc(C)c(C)c3)c2=O)cc1 | - | - | - | 10µM | - | -
COc1nccnc1NS(=O)(=O)c1ccc(N=Cc2c(C)[nH]n(-c3ccc(Cl)cc3)c2=O)cc1 | - | - | . | - | - | .
COc1ccc(-c2cn3ccccc3n2)cc1OC | - | - | - | 11µM | ? | -
CCOc1ccc(-c2cn3ccccc3n2)cc1 | . | - | - | 8.9µM | ? | -
Fc1ccc(-c2cn3ccccc3n2)cc1 | . | - | - | . | - | -
COc1ccc(-c2cn3cc(C)ccc3n2)cc1OC | - | - | - | ? | - | -
SMILES | Lamin A splicing | Tb PFK block | Rango-impB inh | Luc counter | Chronic BCR inh | Rango dissoc inh
O=C1C=C(Nc2ccc(Cl)cc2)CC(c2ccco2)C1 (stereo not drawn) | - | - | - | - | ? | -
O=C1C=C(Nc2cccc(O)c2)CC(c2ccco2)C1 (stereo not drawn) | - | - | ? | - | ? | 12µM
O=C(Nc1cc2ccccc2oc1=O)c1ccccc1 | - | - | - | 11µM | ? | -
O=C(Nc1cc2ccc(O)cc2oc1=O)c1ccc(F)cc1 | - | . | . | . | ? | .
Cc1nc(N2CCCCC2)c2sc(=S)n(C)c2n1 | - | - | - | - | - | -
CCN1CCN(c2nc(C)nc3c2sc(=S)n3C)CC1 | - | 19µM | - | - | - | -
Cc1cc(=O)n(Cc2ccc(Cl)cc2)c2c1c(C)nn2-c1ccccc1 | - | . | . | . | . | .
COC(=O)Cc1ccc2sc(-c3ccccc3)nc2c1 | - | - | - | 13µM | ? | -
COc1ccc(/C=N/N2C(=O)c3ccccc3C2=O)cc1 | - | - | - | 14µM | - | -
Cc1ccc(S(=O)(=O)c2c(N)n(-c3ccccc3)c3nc4ccccc4nc23)cc1 | ? | - | ? | - | - | 15µM
CCN(C(=O)COC(=O)c1cccnc1Nc1ccccc1F)C1CCS(=O)(=O)C1 (stereo not drawn) | - | - | - | 10µM | ? | -
CN(C(=O)COC(=O)c1cccnc1Nc1ccccc1F)C1CCS(=O)(=O)C1 (stereo not drawn) | - | - | - | - | ? | -
CCOc1ccc(NC(=O)c2ccc(Cn3nc(C)cc3C)o2)cc1 | . | - | - | . | - | -
Cc1cccc(OC(=O)NCCOC(=O)N(O)c2ccc(Cl)cc2)c1 | ? | - | - | - | - | -
CN1C(=O)/C(=C/c2ccc(O)c([N+](=O)[O-])c2)N(C)C1=S | . | - | ? | - | - | -
Cc1ccc(C(=O)Nc2sc3c(c2C(=O)O)CCCCC3)o1 | ? | - | - | 7.9µM | ? | -
CCOc1ccccc1Oc1nc(C)nc2c1oc1ccccc12 | - | . | . | . | 13µM | .
Cc1nc(Oc2ccc(F)cc2Cl)c2oc3ccccc3c2n1 | - | . | . | . | ? | .
CCn1cc(Cl)c(C(=O)NNC(=O)CCn2nc(C)c([N+](=O)[O-])c2C)n1 | - | - | - | - | - | -
CCC(CC)C(=O)c1c[nH]c(C(=O)NN)c1 | - | - | - | - | 22µM | -
O=C1Nc2ccccc2SC1c1ccccc1Cl (stereo not drawn) | . | . | - | . | . | -
C/C(=N/N=C/c1ccccc1O)c1ccccc1O | . | - | 37µM | . | ? | ?
Oc1ccccc1C=NN=C1c2ccccc2-c2ccccc21 | . | . | - | . | . | -
C=CCSc1nnc(-c2ccc([N+](=O)[O-])cc2)o1 | . | - | - | - | - | -
COc1ccc(S(=O)(=O)N2CCN(C(=O)C3COc4ccccc4O3)CC2)cc1 (stereo not drawn) | . | 27µM | - | . | - | -
SMILES | Lamin A splicing | Tb PFK block | Rango-impB inh | Luc counter | Chronic BCR inh | Rango dissoc inh
CC(=O)Nc1ccc(S(=O)(=O)N2CCN(C(=O)C3COc4ccccc4O3)CC2)cc1 (stereo not drawn) | . | - | - | . | - | -
O=C(Nc1cccc(Br)c1)c1ccccc1-c1ccccc1 | - | - | ? | - | ? | -
COc1ccc(NC(=O)Nc2cccs2)cc1Cl | . | - | - | . | - | -
COc1cc2c(cc1OC)-c1cc(OCCN3CCOCC3)nc(=O)n1CC2 | - | - | ? | - | - | 8.2µM
O=C(CN1CCN(Cc2ccc(Cl)cc2)CC1)N/N=C/c1cccc(F)c1 | . | - | - | . | - | -
COc1cccc2oc(-c3ccc(O)cc3)cc(=O)c12 | . | . | . | - | . | .
COc1cccc2oc(-c3ccccc3)cc(=O)c12 | . | . | . | 16µM | . | .
COCCn1c(SCC(=O)Nc2ccc(F)cc2)nc2ccccc2c1=O | . | - | - | . | - | -
Cc1ccccc1C(=O)Nc1ccc(C(=O)N/N=C/c2ccncc2)cc1 | . | - | ? | - | ? | -
COc1ccc(C(=O)Nc2ccccc2C(=O)N/N=C/c2ccco2)cc1 | - | - | - | 2.8µM | ? | -
